Earlier results in patent US8507011B2, “Method for suppressing or preventing fibrous adhesion formation using a multicomponent aqueous oxychlorine composition prepared on-site” (priority 2009, dated 2013).
This is a selection: effects in other tests are not listed, and their absence says nothing.

Tested on: adhesion
Settings: applied intra-abdominally

Question: For Tetrachlorodecaoxide, which “Antiadhesive properties (in words)” value is on record?
Answer: Its value is “displays antiadhesive properties”.
